Data on 8 compounds can be found in EPA's ToxRefDB 2.

Series [1] has as its system rat. The conditions noted are these: Prenatal developmental toxicity study, sprague dawley, Oral, Gavage/Intubation, dose end: 12 day.
Series [2] has as its system rat. Particulars: Sub-acute repeat dose toxicity; sprague dawley; Oral; Gavage/Intubation; dose end: 14 day; group: systemic; systemic / clinical chemistry / 5' nucleotidase / 5' nucleotidase + systemic / clinical chemistry / alanine aminotransferase (alt/sgpt) / ….
Series [3] has as its system rabbit. The conditions noted are these: Sub-acute repeat dose toxicity; new zealand white; Oral; Gavage/Intubation; dose end: 4 day; group: systemic; systemic / in life observation / body weight / body weight + systemic / in life observation / food consumption / food consumption.
In series [4] the test system is rat. Particulars: Prenatal developmental toxicity study, Oral, Gavage/Intubation, dose end: 12 day.
The subject of series [5] is rat. Particulars: Sub-acute repeat dose toxicity; Oral; Gavage/Intubation; dose end: 10 day; group: systemic; systemic / hematology / erythrocyte (rbc) count differential / erythrocyte (rbc) + systemic / hematology / hematocrit (hct) / hematocrit (….
Series [6] has as its system rat. Particulars: Prenatal developmental toxicity study; other; Oral; Gavage/Intubation; dose end: 15 day; group: developmental; developmental / developmental malformation / general / [other].
The subject of series [7] is rat. The conditions noted are these: Prenatal developmental toxicity study, fischer, Oral, Feed, dose end: 28 day (PND).
The subject of series [8] is rat. The conditions noted are these: Prenatal developmental toxicity study; wistar; Injection; Subcutaneous; dose end: 21 PND; group: developmental; developmental / developmental landmark / incisor eruption / incisor eruption + developmental / developmental malformation / testes / delayed….
Series [9] deals with rabbit. Particulars: Prenatal developmental toxicity study, Oral, Gavage/Intubation, dose end: 13 day.
Series [10] concerns rat. The conditions noted are these: Prenatal developmental toxicity study; Oral; Gavage/Intubation; dose end: 12 day; group: maternal; systemic / in life observation / body weight / body weight + systemic / in life observation / body weight / body weight gain + systemic / in….
The test system of the next series is hamster. Particulars: Prenatal developmental toxicity study, Syrian, Oral, Feed.
Series [11] has as its system rabbit. Particulars: Prenatal developmental toxicity study; other; Oral; Feed; group: developmental; developmental / offspring survival late / [other] / [other] + systemic / in life observation / body weight / offspring (pup) weight.
Series [12] has as its system rat. The conditions noted are these: Prenatal developmental toxicity study, long evans, Oral, Feed.
In series [13] the test system is rat. Particulars: Prenatal developmental toxicity study, sprague dawley, Oral, Gavage/Intubation, dose end: 20 PND.
[14] abbreviates: group: developmental, systemic / in life observation / body weight / fetal weight.
The mark [15] stands for this setting: group: maternal, systemic / in life observation / body weight / body weight + systemic / in life observation / body weight / body weight gain + systemic / in….
[16] abbreviates: group: developmental, developmental / developmental malformation / bone / exencephaly + systemic / in life observation / body weight / fetal weight.
The mark [17] stands for this setting: group: maternal, systemic / in life observation / food consumption / food consumption + systemic / organ weight / uterus / nos + reproductive / offspring ….
[18] abbreviates: group: developmental, developmental / offspring survival late / [other] / [other] + systemic / in life observation / body weight / offspring (pup) weight.
Setting [19] is: group: developmental, systemic / in life observation / body weight / offspring (pup) weight.
The mark [20] stands for this setting: group: maternal, reproductive / reproductive performance / pregnancy / pregnancy.
Setting [21] is: group: developmental, developmental / developmental malformation / general / [other].
The mark [22] stands for this setting: group: maternal, systemic / hematology / lymphocyte / lymphocyte.
Where [23] appears, read: group: maternal, systemic / in life observation / food consumption / food consumption.
Where [24] appears, read: group: maternal, reproductive / reproductive performance / reproductive performance other / NOS + reproductive / offspring survival early / dead fetuses / ….
[25] abbreviates: group: developmental, developmental / offspring survival late / viability index / viability index + developmental / developmental landmark / vaginal opening / ….
Where [26] appears, read: group: developmental, systemic / organ weight / liver / relative to body weight.
[27] abbreviates: group: maternal, systemic / organ weight / liver / relative to body weight + reproductive / reproductive performance / fertility / fertility + reproductive….

Consider `COc1ccc(C(C)(C)C)cc1CN[C@H]1C2CCN(CC2)[C@H]1C(c1ccccc1)c1ccccc1`, for which, in the series on rat [1] (setting [14]), the LEL is 150 mg/kg/day; the LOAEL (usually the lowest dose or exposure tested at which an adverse effect was seen) was more than 150 mg/kg/day; the NOAEL (as a rule, the highest tested level that showed no adverse finding) was not below 150 mg/kg/day. For the same compound, in the series on rat [1] (setting [15]), the LEL came out at 75 mg/kg/day, the LOAEL is more than 150 mg/kg/day, the NEL was determined as 15 mg/kg/day and the no-observed-adverse-effect level (NOAEL) was not below 150 mg/kg/day. The LEL with rat [2] came out at 150 mg/kg/day. The LEL with rabbit [3] was determined as 150 mg/kg/day.

Consider `CC(C)c1nnc2ccc(-c3ocnc3-c3cc(F)ccc3F)cn12`, for which, in the series with rat [4] (setting [16]), the LEL came to 250 mg/kg/day, the lowest observed adverse effect level (LOAEL) is more than 2000 mg/kg/day, the NEL is less than 250 mg/kg/day and the no observed adverse effect level (NOAEL) is not below 2000 mg/kg/day. Moreover, in the series with rat [4] (setting [15]), the LOAEL is more than 2000 mg/kg/day and the NOAEL was not below 2000 mg/kg/day. For the same compound, in the series on rat [4] (setting [17]), the LEL stood at 250 mg/kg/day and the NEL is less than 250 mg/kg/day. Further, in the series with rat [5], the LEL was 250 mg/kg/day.

As to `CCC(O)CO` (centres undefined) [1,2-Butanediol], in the series with rat [6], the LEL was 300 mg/kg/day, the lowest-observed-adverse-effect level (LOAEL) was 300 mg/kg/day, the NEL was found to be 100 mg/kg/day and the no observed adverse effect level (NOAEL) was 100 mg/kg/day.

Consider `O=C1NC(=O)C(c2ccccc2)(c2ccccc2)N1` [5,5-Diphenylhydantoin], for which, in the series with rat [7] (setting [18]), the lowest-observed-adverse-effect level (LOAEL) was 40 mg/kg/day, the NEL was 4 mg/kg/day and the NOAEL turned out to be 12 mg/kg/day. The same compound returned an LEL in the series on rat [7] (setting [19]) of 12 mg/kg/day. In the series on rat [7] (setting [20]), this compound gave an LEL of 120 mg/kg/day, an LOAEL of 120 mg/kg/day, an NEL of 40 mg/kg/day and a no-observed-adverse-effect level (NOAEL) of 40 mg/kg/day.

As to `ClC1=C(Cl)[C@]2(Cl)[C@H]3[C@H]([C@@H]4C=C[C@H]3C4)[C@@]1(Cl)C2(Cl)Cl` [Aldrin], in the series on rat [8], the LEL stood at 1 mg/kg/day, the LOAEL is more than 1 mg/kg/day, the NEL is less than 1 mg/kg/day and the no observed adverse effect level (NOAEL) is not below 1 mg/kg/day.

Regarding `Nc1cc2c3c(c1)C(c1ccccc1)=N[C@@H](NC(=O)c1cccnc1)C(=O)N3CC2` [CI-1044], the LEL in the series on rabbit [9] (setting [21]) and in the series on rabbit [9] (setting [22]) was 10 mg/kg/day each time. Further, the NEL in the series on rabbit [9] (setting [21]) and in the series with rabbit [9] (setting [22]) was less than 10 mg/kg/day throughout. The lowest observed adverse effect level (LOAEL) in the series with rabbit [9] (group: developmental, developmental / developmental malformation / general / [other] + systemic / in life observation / body weight / fetal weight) was more than 150 mg/kg/day; in the series on rabbit [9] (group: maternal, systemic / hematology / lymphocyte / lymphocyte + reproductive / reproductive performance / aborted / aborted + systemic / in life …), more than 150 mg/kg/day; in the series on rat [10], more than 50 mg/kg/day.

With `II` [Iodine], the LEL in the series on hamster (setting [19]) is 156 mg/kg/day; with hamster (setting [23]), 156 mg/kg/day; in the series with rabbit [11], 12.5 mg/kg/day; in the series on rat [12] (setting [19]) it was 125 mg/kg/day; with rat [12] (setting [24]), 125 mg/kg/day. The LOAEL with hamster (setting [19]) is more than 156 mg/kg/day; in the series with hamster (setting [23]) it was more than 156 mg/kg/day; with rabbit [11] it was more than 50 mg/kg/day; in the series with rat [12] (setting [19]) it was more than 125 mg/kg/day; with rat [12] (setting [24]), more than 125 mg/kg/day. Also, the NEL with hamster (setting [19]) was less than 156 mg/kg/day; in the series on hamster (setting [23]) it was less than 156 mg/kg/day; with rabbit [11], less than 12.5 mg/kg/day; in the series on rat [12] (setting [19]) it was less than 125 mg/kg/day; with rat [12] (setting [24]) it was less than 125 mg/kg/day. The NOAEL was not below 156 mg/kg/day with hamster (setting [19]); not below 156 mg/kg/day with hamster (setting [23]); not below 50 mg/kg/day with rabbit [11]; not below 125 mg/kg/day in the series with rat [12] (setting [19]); not below 125 mg/kg/day with rat [12] (setting [24]).

Turning to `ClC(Cl)=C(c1ccc(Cl)cc1)c1ccc(Cl)cc1` [p,p'-DDE], in the series with rat [13] (setting [25]), the LOAEL was more than 50 mg/kg/day and the no-observed-adverse-effect level (NOAEL) is not below 50 mg/kg/day. Moreover, in the series with rat [13] (setting [26]), the LEL amounted to 5 mg/kg/day and the NEL is less than 5 mg/kg/day. Moreover, the NEL in the series with rat [13] (group: maternal, systemic / organ weight / liver / relative to body weight) was 15 mg/kg/day. In the series on rat [13] (setting [27]), the LEL worked out at 50 mg/kg/day, the lowest-observed-adverse-effect level (LOAEL) was more than 50 mg/kg/day and the NOAEL is not below 50 mg/kg/day.
